Data reported in PubChem BioAssay AID624297 (National Center for Advancing Translational Sciences (NCATS), 2012).
This is a selection; strong and weak results do not stand in their true shares. Inconclusive results are not listed. Active and inactive are the calls of the source. The call rests on the fitted dose curve; in most records, active means well fitted activation curve with a large enough effect; inconclusive means small, poorly fitted or top-dose-only effect; inactive means no such curve, though single readings can be large or run the other way.

Assay: A quantitative high throughput screen for small molecules that induce DNA re-replication in SW480 colon adenocarcinoma cells. Further: % of control where 0% means no effect; nearly all actives have a fitted effect of over 55% in size.
Conditions: Hoechst DNA content imaging, 48 h; at 46.1 µM (top of the series)

| Structure (SMILES) | re-replication activation |
| --- | --- |
| CC(=O)c1ccc(N2CC2c2ccncc2)cc1 (configuration not stated) | inactive: -1.6% |
| CP(=O)(Nc1ccc(Cl)cc1)Oc1ccc(F)cc1 (configuration not stated) | inactive: -2.3% |
